How the values were obtained:
[1] = mouse, high-resolution mass spectrometry
[2] = biological target: T1, recombinant human androgen receptor (AR) protein (Homo sapiens, UniProt P10275); experiment: Small molecule-protein affinity (protein-ligand coupling) assay, Biacore T200 SPR; format: binding
T1 construct: RPB252Hu03, Ile673-His918 with N-terminal His Tag; His tag (N); purchased CLOUD-CLONE CORP; WUHAN RPB252Hu03

Chains of the proteins cited; added tags and fusions are not shown. Residues count along the entry.
UniProt P10275, 673-918: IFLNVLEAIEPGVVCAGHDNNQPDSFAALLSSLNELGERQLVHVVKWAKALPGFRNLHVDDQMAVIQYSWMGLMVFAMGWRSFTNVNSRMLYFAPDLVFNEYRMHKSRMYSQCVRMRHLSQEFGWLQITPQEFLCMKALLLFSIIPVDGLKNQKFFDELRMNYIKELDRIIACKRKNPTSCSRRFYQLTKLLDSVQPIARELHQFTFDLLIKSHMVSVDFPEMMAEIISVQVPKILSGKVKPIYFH

Structure (SMILES) | metabolites detected after administration (identity) [1] | Kd [2] [µM]
C[C@@](COc1ccc(C#N)cc1)(OC(=O)CCCC[C@@H]1CCSS1)C(=O)Nc1cnc(C#N)c(C(F)(F)F)c1 | corresponded to the compound of Example 3 | 
C[C@@](COc1ccc(C#N)cc1)(OC(=O)c1ccccc1)C(=O)Nc1cnc(C#N)c(C(F)(F)F)c1 [Example 26, (S)-1-((6-cyano-5-(trifluoromethyl)pyridin-3-yl)amino)-3-(4-cyanophenoxy)-2-methyl-1-oxopropan-2-yl benzoate] |  | 55
